AlphaSeq binding of Ab-14 heavy chain variants to a spike HR2 peptide

Binding partner: SARS-CoV-2 spike HR2 peptide, sequence PDVDLGDISGINAS.

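AAYL49 was designed without a model: most single CDR substitutions and a random sample of double and triple ones. Affinity was read by AlphaSeq, a pooled yeast mating assay with surface-displayed partners. Mating (16 h, 30 °C) was followed by selection of diploids and sequencing of their barcodes. A regression on co-assayed BCL2-family reference pairs converts the normalised counts of each replicate to an apparent Kd. There are three technical replicates.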

The variants keep the light chain, the linker and the frameworks of Ab-14 (scFv order VH, the linker GGGGSGGGGSGGGGS, VL).
VH: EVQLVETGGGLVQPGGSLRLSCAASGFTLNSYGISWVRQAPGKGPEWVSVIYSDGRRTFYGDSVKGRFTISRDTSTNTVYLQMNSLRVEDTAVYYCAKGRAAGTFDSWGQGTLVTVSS
VL: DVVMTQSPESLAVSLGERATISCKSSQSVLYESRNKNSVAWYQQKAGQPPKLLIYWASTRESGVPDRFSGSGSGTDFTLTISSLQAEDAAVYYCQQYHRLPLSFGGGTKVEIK

The parent's heavy chain CDRs are GFTLNSYGIS, VIYSDGRRTFYGDSVK, GRAAGTFDS; each variant's own CDRs replace them letter for letter. Affinities are written as log10 Kd with Kd in nM; a lower number is a better binder. An entry "nd" has no value in the source: the pair was not observed among the diploids in that replicate. This suggests poor binding but is not conclusive. Nonspecific signal, from three strains lacking the peptide, appeared in 15% of pairings of library AAYL49, centred on 4.06 (5% of these signals below 2.83); values are not corrected for it. For each scFv, signals with the empty controls are counted beside the result, with their mean in brackets. In this assay the parent's reference entry averaged 0.65; its copy inside this library read 4.11 (one replicate of three).

{"CDR-H1": "GSTRNSYGIS", "CDR-H2": "VICSDGRRTFYGDSVK", "CDR-H3": "GRAAGTFDS", "log10 Kd (nM) by replicate": "nd nd nd", "signal with controls": "0/9"}
{"CDR-H1": "GFTLNSYPIS", "CDR-H2": "NIYSDGRRTFYGDSVK", "CDR-H3": "GRAAGTFGS", "log10 Kd (nM) by replicate": "nd nd nd", "signal with controls": "2/9 (4.58)"}
{"CDR-H1": "WFTLNSYGIS", "CDR-H2": "VIYSDGRRTFYGDSVR", "CDR-H3": "SRAAGTFDS", "log10 Kd (nM) by replicate": "nd nd nd", "signal with controls": "0/9"}
{"CDR-H1": "GFTLNSYGIS", "CDR-H2": "VKYSDGRRTFYGDMVK", "CDR-H3": "GRAAGTTDS", "log10 Kd (nM) by replicate": "5.28 3.64 nd", "signal with controls": "1/9 (3.36)"}
{"CDR-H1": "GFTLNSYGIS", "CDR-H2": "VIYTIIRRTFYGDSVK", "CDR-H3": "GRAAGTFDS", "log10 Kd (nM) by replicate": "nd nd nd", "signal with controls": "0/9"}
{"CDR-H1": "GFSLNSYGIS", "CDR-H2": "VIYSDGRHTFYGDSVK", "CDR-H3": "GRAAGTGDS", "log10 Kd (nM) by replicate": "nd nd nd", "signal with controls": "0/9"}
{"CDR-H1": "GFTLLSYGIR", "CDR-H2": "VIYSDGRRWFYGDSVK", "CDR-H3": "GRAAGTFDS", "log10 Kd (nM) by replicate": "nd nd nd", "signal with controls": "1/9 (3.72)"}
{"CDR-H1": "GFTLNMYGIS", "CDR-H2": "VCYSDGRRTFYGDSVV", "CDR-H3": "GRAAGTFDS", "log10 Kd (nM) by replicate": "4.63 4.15 5.14", "signal with controls": "6/9 (4.65)"}
{"CDR-H1": "GFLLNSYGIS", "CDR-H2": "GIYSDGRRTFYGDSVK", "CDR-H3": "GAAAGTFDS", "log10 Kd (nM) by replicate": "4.33 nd nd", "signal with controls": "0/9"}
{"CDR-H1": "GFTLYSYGIS", "CDR-H2": "VIYSDGRRTFYGDFVK", "CDR-H3": "GRMAGTFDS", "log10 Kd (nM) by replicate": "2.20 2.84 2.96", "signal with controls": "1/9 (4.49)"}
{"CDR-H1": "GFTLNSYEIS", "CDR-H2": "VIYSDGRRTFYGDSVQ", "CDR-H3": "GRSAGTFDS", "log10 Kd (nM) by replicate": "nd nd nd", "signal with controls": "1/9 (3.14)"}
{"CDR-H1": "GRDLNSYGIS", "CDR-H2": "VIYSDGRRTFYGDSVK", "CDR-H3": "GRLAGTFDS", "log10 Kd (nM) by replicate": "0.41 0.64 0.58", "signal with controls": "3/9 (4.40)"}
{"CDR-H1": "GFTLNSYGIS", "CDR-H2": "VIYSDGRRTVYGDSVN", "CDR-H3": "ARAAGTFDS", "log10 Kd (nM) by replicate": "nd nd nd", "signal with controls": "2/9 (4.54)"}
{"CDR-H1": "GFQLNSHGIS", "CDR-H2": "VIYSDGRRTFYGDSVK", "CDR-H3": "GRAAGWFDS", "log10 Kd (nM) by replicate": "3.21 nd nd", "signal with controls": "0/9"}
{"CDR-H1": "GFTGNSYGIS", "CDR-H2": "VIYSDGRRTFYGDWVK", "CDR-H3": "GRTAGTFDS", "log10 Kd (nM) by replicate": "nd nd nd", "signal with controls": "0/9"}
{"CDR-H1": "GFTLNSYGIS", "CDR-H2": "VYYVDGRRTFYGDSRK", "CDR-H3": "GRAAGTFDS", "log10 Kd (nM) by replicate": "nd nd nd", "signal with controls": "0/9"}
{"CDR-H1": "GFTLESYGIH", "CDR-H2": "VIYSDGRRTFYGPSVK", "CDR-H3": "GRAAGTFDS", "log10 Kd (nM) by replicate": "1.22 1.20 1.43", "signal with controls": "0/9"}
{"CDR-H1": "GFTLNSYFIS", "CDR-H2": "VIYSDGRRTFYDDSVK", "CDR-H3": "GRAAGTFDS", "log10 Kd (nM) by replicate": "nd nd nd", "signal with controls": "1/9 (4.01)"}
{"CDR-H1": "GFTLNSYGIS", "CDR-H2": "VIYSDGRRTFYGDAVL", "CDR-H3": "GKAAGTFDS", "log10 Kd (nM) by replicate": "2.03 1.86 2.60", "signal with controls": "2/9 (4.34)"}
{"CDR-H1": "GFVLNMYGIS", "CDR-H2": "VIYSDGRRTFYGDSVK", "CDR-H3": "GRAAGCFDS", "log10 Kd (nM) by replicate": "4.33 nd 3.35", "signal with controls": "2/9 (3.63)"}
{"CDR-H1": "GFTLNSYGIS", "CDR-H2": "VIYSDGRRYFYGDSVK", "CDR-H3": "GYEAGTFDS", "log10 Kd (nM) by replicate": "2.35 2.37 2.26", "signal with controls": "0/9"}
{"CDR-H1": "GFTLNSYGIS", "CDR-H2": "VIYSDGYRTFYGDSVN", "CDR-H3": "GRAYGTFDS", "log10 Kd (nM) by replicate": "nd 3.25 2.68", "signal with controls": "1/9 (4.18)"}
{"CDR-H1": "GFTFSSYGIS", "CDR-H2": "VIYSDVRRTFYGDSVK", "CDR-H3": "GRAAGTFDS", "log10 Kd (nM) by replicate": "4.21 nd 5.49", "signal with controls": "0/9"}
{"CDR-H1": "GFTLNSEGIR", "CDR-H2": "VIYSDGRRTFYGDSVK", "CDR-H3": "GRAVGTFDS", "log10 Kd (nM) by replicate": "3.74 nd nd", "signal with controls": "1/9 (3.92)"}
{"CDR-H1": "GFTLNVYGIS", "CDR-H2": "VIYSDGRRTFYGDSVK", "CDR-H3": "GRANGTFDS", "log10 Kd (nM) by replicate": "nd nd nd", "signal with controls": "1/9 (4.44)"}
{"CDR-H1": "GFTLNSYRIS", "CDR-H2": "CIYSDGRWTFYGDSVK", "CDR-H3": "GRAAGTFDS", "log10 Kd (nM) by replicate": "nd nd 3.76", "signal with controls": "1/9 (3.55)"}
{"CDR-H1": "GFTLNSYGIS", "CDR-H2": "VIYSDGRRAFYGDSVK", "CDR-H3": "GRWAGTFLS", "log10 Kd (nM) by replicate": "1.09 0.95 1.00", "signal with controls": "1/9 (4.61)"}
{"CDR-H1": "GNTLNSYGIS", "CDR-H2": "VIYSNGRRTFYGDSVK", "CDR-H3": "GRAAGTFDS", "log10 Kd (nM) by replicate": "nd nd nd", "signal with controls": "4/9 (4.58)"}
{"CDR-H1": "GFTLNSYGIS", "CDR-H2": "VIYSDGRITFYNDSDK", "CDR-H3": "GRAAGTFDS", "log10 Kd (nM) by replicate": "2.94 nd nd", "signal with controls": "2/9 (4.68)"}

Extract of 3 entries:

CDR-H1,CDR-H2,CDR-H3,log10 Kd (nM) by replicate,signal with controls
GFTLLSYGIR,VIYSDGRRWFYGDSVK,GRAAGTFDS,nd nd nd,1/9 (3.72)
GFTLNSYGIS,VIYSDGRRAFYGDSVK,GRWAGTFLS,1.09 0.95 1.00,1/9 (4.61)
GFLLNSYGIS,GIYSDGRRTFYGDSVK,GAAAGTFDS,4.33 nd nd,0/9

The measurements come from Engelhart et al. 2022 (doi:10.1038/s41597-022-01779-4) through the FLAb antibody collection.